Each structure is given as a SMILES string. Some of the results follow. Measured potencies and affinities stand elsewhere. Some of these compounds have results that are not shown, active ones among them. Activity calls are given as the source filed them. How the calls were made is not given here.

Protein sequences, listed by entry. Tags and fused reporters are not part of them.
UniProt P03070, whole entry: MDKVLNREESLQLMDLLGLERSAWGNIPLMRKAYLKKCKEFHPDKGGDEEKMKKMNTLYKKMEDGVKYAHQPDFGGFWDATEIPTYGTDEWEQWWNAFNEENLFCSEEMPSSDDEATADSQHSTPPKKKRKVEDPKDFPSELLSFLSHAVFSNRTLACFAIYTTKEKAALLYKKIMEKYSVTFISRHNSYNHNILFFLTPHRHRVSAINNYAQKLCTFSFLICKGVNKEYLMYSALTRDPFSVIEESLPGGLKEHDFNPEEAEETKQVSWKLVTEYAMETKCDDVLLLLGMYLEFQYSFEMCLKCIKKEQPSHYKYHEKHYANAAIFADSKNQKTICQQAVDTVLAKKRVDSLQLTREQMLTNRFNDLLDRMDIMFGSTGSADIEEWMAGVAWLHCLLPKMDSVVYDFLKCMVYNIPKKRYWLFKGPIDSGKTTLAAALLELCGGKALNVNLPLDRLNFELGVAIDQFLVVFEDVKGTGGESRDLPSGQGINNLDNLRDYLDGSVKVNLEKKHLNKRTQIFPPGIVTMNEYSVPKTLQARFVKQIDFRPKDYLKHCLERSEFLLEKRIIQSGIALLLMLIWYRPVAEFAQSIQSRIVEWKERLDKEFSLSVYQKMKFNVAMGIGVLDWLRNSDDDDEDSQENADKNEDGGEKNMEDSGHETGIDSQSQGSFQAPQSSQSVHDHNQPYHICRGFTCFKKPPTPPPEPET

The assay has as its target Large T antigen (Simian virus 40) (UniProt P03070). The assay can be described thus: SV40 large T antigen inhibitors, biochemical (AID 1903). The note with it: SV40 large T antigen ATPase/helicase inhibition assay; at 20 µM; hits give high values.
For the compound `COc1ccc(Br)c(C(=O)NCC2(N3CCCCC3)CCCCC2)c1`, the inhibition is inactive: 12%. Then `CN(C)c1cccc(C(=O)NCC2(N(C)C)CCCCC2)c1`, with inactive: 8.28%; and `CC(C)Oc1ccc(C(=O)NCC2(N(C)C)CCCCC2)cc1`, with inactive: 0.37%. Then `O=C(OC1CN2CCC1CC2)C(CO)(c1ccccc1)c1ccccc1` (centres undefined), with inactive: 1.24%; and `COc1ccc(Cl)cc1C(=O)NCC1(N(C)C)CCCCC1`, with inactive: 17.5%.

For the compound `COc1cccc(C(=O)NCC2(N3CCCCC3)CCCCC2)c1`, the inhibition was inactive: 7.37%. Then `O=C(NCC1(N2CCCCC2)CCCCC1)c1cccc(Cl)c1`, with inactive: 5.94%; and `CN(C)C1(CNC(=O)c2ccc(Br)cc2)CCCCC1`, with inactive: 11.4%.

Take `COc1cc(C(=O)NCC2(N(C)C)CCCCC2)c([N+](=O)[O-])cc1OC`: the inhibition is inactive: -3.49%. Regarding `O=C(NCC1(N2CCCCC2)CCCCC1)c1cc(F)c(F)cc1Cl`, the inhibition was inactive: 6.02%. Then `C=CCN1CCN(CCOC(=O)C(O)(c2ccccc2)c2ccccc2)CC1`, with inactive: 24.3%. Then `O=C(NCC1(N2CCCCC2)CCCCC1)c1cccc(Br)c1`, with inactive: 6.84%. Then `CCN1CCCC(OC(=O)C2(O)c3ccccc3C=Cc3ccccc32)C1` (centres undefined), with inactive: -1.29%; and `Cc1cc(C(=O)NCC2(N3CCCCC3)CCCCC2)ccc1[N+](=O)[O-]`, with inactive: -2.16%; and `COc1ccc(C(=O)NCC2(N(C)C)CCCCC2)cc1`, with inactive: 1.77%. On to `CN(C)c1ccc(C(=O)NCC2(N(C)C)CCCCC2)cc1`, for which the inhibition is inactive: 3.87%. As for `CN(C)C1CCCC1OC(=O)C(O)(c1ccccc1)c1ccccc1` (centres undefined), the figure is inactive: 24.5%; as for `Cc1ccccc1C(=O)NCC1(N2CCCCC2)CCCCC1`, inactive: -0.14%; as for `CC(C)N1C(=O)CC2(CCN(CCOC(=O)C(O)(c3ccccc3)c3ccccc3)CC2)C1=O`, inactive: -0.195%. Then `COc1cc(SC)ccc1C(=O)NCC1(N(C)C)CCCCC1`, with inactive: 4.48%. As for `CCN(CC)CC(C)C(C)OC(=O)C(O)(c1ccccc1)c1ccccc1` (centres undefined), the inhibition was inactive: 24.2%.

Regarding `Cc1ccc(C(=O)NCC2(N3CCCCC3)CCCCC2)cc1`, the inhibition was inactive: 3.88%. As for `O=C(NCC1(N2CCCCC2)CCCCC1)c1cc([N+](=O)[O-])ccc1Cl`, the figure is inactive: 6.63%.

With `CN1[C@@H]2CC[C@H]1CC(OC(=O)C(O)(c1ccccc1)c1ccccc1)C2` (some centres undefined), the inhibition was inactive: 22.7%.

For the origin of these results see PubChem BioAssay AID1903 (Southern Research Specialized Biocontainment Screening …, 2009).
